Assay results taken from US20050261290A1, “Novel compounds of proline and morpholine derivatives” (priority 2004, published 2005).

The chains behind the UniProt entries cited, without tags or fusion partners.
UniProt P28845, whole entry: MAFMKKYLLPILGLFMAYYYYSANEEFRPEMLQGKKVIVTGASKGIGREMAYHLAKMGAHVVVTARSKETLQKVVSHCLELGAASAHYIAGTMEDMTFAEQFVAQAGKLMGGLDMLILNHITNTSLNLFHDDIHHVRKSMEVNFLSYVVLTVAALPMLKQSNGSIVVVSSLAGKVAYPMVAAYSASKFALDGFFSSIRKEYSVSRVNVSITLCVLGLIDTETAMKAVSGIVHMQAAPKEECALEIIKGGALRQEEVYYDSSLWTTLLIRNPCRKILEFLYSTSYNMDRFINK

Target: human 11b-hsd-1 (Homo sapiens, UniProt P28845)
Assay: Inhibition constant Ki of human 11b-hsd-1 (3H-cortisone to 3H-cortisol conversion, HPLC)
Format: biochemical

SMILES: O=C(NC12CC3CC(CC(C3)C1)C2)C1COCCN1Cc1cccc(OC(F)F)c1 (centres unmarked)
- % inh @ 0.1 μM (compound at 0.1 μM): 100%
- Ki (read-out: Ki app, apparent Ki, human 11b-hsd-1): 1.6 nM
